The record followed here is PubChem BioAssay (NCI).

This is a selection; strong and weak results do not stand in their true shares.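 Single-dose data. Exposure time 48 hours. Values below 10 considered active.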 Active and inactive are the calls of the source.

For the experiment, the system named is MDA-MB-468 breast. As to the kind of experiment: NCI-60 one-dose screen, 48 h (100 = growth as untreated, 0 = no growth, -100 = all killed). The settings on record: 10 µM.

With `CN(CCCl)CCCl`, the growth is active: -23.5%.
